Source: patent US20220204624A1 (published 2022)

How the values were obtained:
Assay in all cases: Octet
[1] = biological target: 1C11_H3_L3.124
[2] = biological target: 1C11_H3_L3.122
[3] = biological target: 1C11_H3_L3.59
[4] = biological target: 1C11_H3_L3.73
[5] = biological target: 1C11_H3_L3.32
[6] = biological target: 1C11_H3_L3.23
[7] = biological target: 1C11_H3_L3.3
[8] = biological target: 1C11_H3_L3.15
[9] = biological target: 1C11_H3_L3.87
[10] = biological target: 1C11_H3_L3.28
[11] = biological target: 1C11_H3_L3.47
[12] = biological target: 1C11_H3_L3.63
[13] = biological target: 1C11_H3_L3.57
[14] = biological target: 1C11_H3_L3.69
[15] = biological target: 1C11_H3_L3.62
[16] = biological target: 1C11_H3_L3.125
[17] = biological target: 1C11_H3_L3.46
[18] = biological target: 1C11_H3_L3.86
[19] = biological target: 1C11_H3_L3.1
[20] = biological target: 1C11_H3_L3.113
[21] = biological target: 1C11_H3_L3.81
[22] = biological target: 1C11_H3_L3.92
[23] = biological target: 1C11_H3_L3.132
[24] = biological target: 1C11_H3_L3.94
[25] = biological target: 1C11_H3.230_L3 (XENP25327)
[26] = biological target: 1C11_H3.231_L3 (XENP25328)
[27] = biological target: 1C11_H3.229_L3 (XENP25326)
[28] = biological target: 1C11_H3.224_L3.148 (XENP25337)
[29] = biological target: 1C11_H3.234_L3.148 (XENP25836)
[30] = biological target: 1C11_H3.234_L3.144 (XENP25835)
[31] = biological target: 1C11_H3.224_L3.144 (XENP25336)
[32] = biological target: 1C11_H3_L3.142 (XENP25342)
[33] = biological target: 1C11_H3.228_L3.148 (XENP25834)
[34] = biological target: 1C11_H3.228_L3.144 (XENP25833)
[35] = biological target: 1C11_H3.95_L3
[36] = biological target: 1C11_H3.5_L3
[37] = biological target: 1C11_H3.25_L3
[38] = biological target: 1C11_H3.41_L3
[39] = biological target: 1C11_H3.7_L3
[40] = biological target: 1C11_H3.188_L3
[41] = biological target: 1C11_H3_L3.105
[42] = biological target: 1C11_H3_L3.96

B1: PD-1 (receptor)
chain: LDSPDRPWNPPTFSPALLVVTEGDNATFTCSFSNTSESFVLNWYRMSPSNQTDKLAAFPEDRSQPGQDCRFRVTQLPNGRDFHMSVVRARRNDSGTYLCGAISLAPKAQIKESLRAELRVTERRAEVPTAHPSPSPRPAGQFQ
What does the source list for B1?
Kd [1]: 16.2 nM; Kd [2]: 1.16 nM; Kd [3]: 10.3 nM; Kd [4]: 11.9 nM; Kd [5]: 22 nM; Kd [6]: 38.7 nM; Kd [7]: 15.4 nM; Kd [8]: 15 nM; Kd [9]: 21.7 nM; Kd [10]: 15.7 nM; Kd [11]: 12.1 nM; Kd [12]: 45.1 nM; Kd [13]: 14.5 nM; Kd [14]: 33.8 nM; Kd [15]: 15.5 nM; Kd [16]: 6.81 nM; Kd [17]: 18.8 nM; Kd [18]: 19.4 nM; Kd [19]: 9.95 nM; Kd [20]: 19.8 nM; Kd [21]: 23.3 nM; Kd [22]: 18.9 nM; Kd [23]: 16.3 nM; Kd [24]: 18.5 nM; Kd [25]: 41.9 nM; Kd [26]: 30.1 nM; Kd [27]: 37.9 nM; Kd [28]: 31.2 nM; Kd [29]: 37.5 nM; Kd [30]: 27.4 nM; Kd [31]: 33.1 nM; Kd [32]: 35.5 nM; Kd [33]: 41.9 nM; Kd [34]: 38.8 nM; Kd [35]: 20 nM; Kd [36]: 19.1 nM; Kd [37]: 34 nM; Kd [38]: 34.4 nM; Kd [39]: 41.9 nM; Kd [40]: 53.2 nM; Kd [41]: 20.4 nM; Kd [42]: 26.5 nM
